Data from publication PMC5217008, “AKT-induced PKM2 phosphorylation signals for IGF-1-stimulated cancer cell growth” (Oncotarget, 2016).

Molecular target: T1, recombinant His-tagged PKM2 (UniProt P14618)
T1 construct: Pyruvate kinase muscle type 2 (PKM2), recombinant protein from BioVision; No catalogue number is printed; also called Recombinant PKM2; source: bought: BioVision
Experiment: co-IP; in vitro binding assay: recombinant PKM2 incubated with or without recombinant active AKT1, immunoprecipitated with anti-AKT antibody, western blot
Conditions: both partners purified

- binding result: binds
B1: recombinant active AKT1 (enzyme, UniProt P31749 1-480, looked up)
chain: MSDVAIVKEGWLHKRGEYIKTWRPRYFLLKNDGTFIGYKERPQDVDQREAPLNNFSVAQCQLMKTERPRPNTFIIRCLQWTTVIERTFHVETPEEREEWTTAIQTVADGLKKQEEEEMDFRSGSPSDNSGAEEMEVSLAKPKHRVTMNEFEYLKLLGKGTFGKVILVKEKATGRYYAMKILKKEVIVAKDEVAHTLTENRVLQNSRHPFLTALKYSFQTHDRLCFVMEYANGGELFFHLSRERVFSEDRARFYGAEIVSALDYLHSEKNVVYRDLKLENLMLDKDGHIKITDFGLCKEGIKDGATMKTFCGTPEYLAPEVLEDNDYGRAVDWWGLGVVMYEMMCGRLPFYNQDHEKLFELILMEEIRFPRTLGPEAKSLLSGLLKKDPKQRLGGGSEDAKEIMQHRFFAGIVWQHVYEKKLSPPFKPQVTSETDTRYFDEEFTAQMITITPPDQDDSMECVDSERRPHFPQFSYSASGTA
notes: AKT1, active recombinant kinase; The catalogue number is printed for the in vitro kinase assay; source: bought: Millipore, 14-276
